Literature values as cited in patent US11980689B2 (AVALYN PHARMA INC., priority 2013, dated 2024).

System: ALK fusion gene tumors
Conditions: nausea, vomiting, or diarrhea; cited from earlier work

## C[C@@H](Oc1cc(-c2cnn(C3CCNCC3)c2)cnc1N)c1c(Cl)ccc(F)c1Cl [Crizotinib]
  patients with at least one side effect: Approximately 50%
